Experimental data from ChEMBL document CHEMBL4393717, “Development of novel human lactate dehydrogenase A inhibitors: High-throughput screening, synthesis, and biological evaluations” (Eur J Med Chem, 2019).

Columns and labels:
[1] = target: T1, L-lactate dehydrogenase A chain (Homo sapiens, UniProt P00338); test: Inhibition of human LDHA expressed in Escherichia coli BL21 (DE3) using sodium pyruvate as substrate by Lineweaver-Burk plot method
[2] = target: T1, L-lactate dehydrogenase A chain; test: Inhibition of recombinant human full-length N-terminal His-tagged LDHA (1 to 332 residues) expressed in Escherichia coli using sodium pyruvate as substrate incubated for 10 mins

## NC(=O)C(=O)O [SODIUM OXAMATE]
[1]
  Ki: > 100 µM
[2]
  EC50: 1200 µM
